Values of other authors in patent US8389472B2, “Exendin-4 to treat nonalcoholic steatohepatitis and nonalcoholic fatty liver disease” (Amylin Pharmaceuticals, LLC, priority 2005, dated 2013).

Conditions: compared to human amylin; cited from earlier work

## CC[C@H](C)[C@H](NC(=O)[C@@H]1CCCN1C(=O)CNC(=O)[C@H](Cc1ccccc1)NC(=O)[C@H](CC(N)=O)NC(=O)[C@H](CC(N)=O)NC(=O)[C@H](CO)NC(=O)[C@H](CO)NC(=O)[C@H](Cc1c[nH]cn1)NC(=O)[C@@H](NC(=O)[C@H](CC(C)C)NC(=O)[C@H](Cc1ccccc1)NC(=O)[C@H](CC(N)=O)NC(=O)[C@H](C)NC(=O)[C@H](CC(C)C)NC(=O)[C@H](CCCNC(=N)N)NC(=O)[C@H](CCC(N)=O)NC(=O)[C@@H](NC(=O)[C@H](C)NC(=O)[C@@H]1CSSC[C@H](NC(=O)[C@@H](N)CCCCN)C(=O)N[C@@H](CC(N)=O)C(=O)N[C@@H]([C@@H](C)O)C(=O)N[C@@H](C)C(=O)N[C@@H]([C@@H](C)O)C(=O)N1)[C@@H](C)O)C(C)C)C(=O)N[C@@H](CC(C)C)C(=O)N1CCC[C@H]1C(=O)N1CCC[C@H]1C(=O)N[C@H](C(=O)N[C@@H](CC(N)=O)C(=O)N[C@H](C(=O)NCC(=O)N[C@@H](CO)C(=O)N[C@@H](CC(N)=O)C(=O)N[C@H](C(=O)N[C@@H](Cc1ccc(O)cc1)C(N)=O)[C@@H](C)O)C(C)C)[C@@H](C)O [^25,28,29Pro-h-amylin]
  solubility and stability characteristics: more desirable solubility and stability characteristics
